The results in this text go back to publication PMC11089510, “Unexpected Noncovalent Off-Target Activity of Clinical BTK Inhibitors Leads to Discovery of a Dual NUDT5/14 Antagonist” (Journal of Medicinal Chemistry, 2024).

The target in this assay is NUDT5 (Homo sapiens, UniProt Q9UKK9). Kind of assay: crystal structure; NUDT5 (26 mg/mL) cocrystallised with ibrutinib (1) (2.5 mM, 25 mM MgCl2; 0.1 M tris pH 8.0, 33% PEG4000, 0.2 M MgCl2) or with compound 9 (0.2 M ammonium acetate, 0.1 M citrate pH 5.5, 30% PEG4000); sitting drop, 18 °C; dimer of chains A and B.

In general, stoichiometry N refers to the number of molecules, sites or subunits per partner or assembly. For “NUDT5 (from UniProt Q9UKK9 1-208) (enzyme)”, the stoichiometry N came out at 2.
